## Binding of CDR-mutated scFvs to a peptide of the spike HR2 region

The measurements come from Engelhart et al. 2022 (doi:10.1038/s41597-022-01779-4) through the FLAb antibody collection.

All variants were tested on one target, the spike HR2 peptide PDVDLGDISGINAS (SARS-CoV-2).

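AAYL50 was designed without a model: most single CDR substitutions and a random sample of double and triple ones. In AlphaSeq, yeast of one mating type display the scFv and yeast of the other type display the target. After mating in shaken culture at 30 °C for 16 h, diploids were selected and their barcode pairs sequenced. Each replicate has its own calibration line, from reference interactions of the BCL2 family. The assay was run in three technical replicates.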

Parent: Ab-14, a human scFv built as VH, three GGGGS repeats, VL. Only the CDRs of the light chain vary.
VH: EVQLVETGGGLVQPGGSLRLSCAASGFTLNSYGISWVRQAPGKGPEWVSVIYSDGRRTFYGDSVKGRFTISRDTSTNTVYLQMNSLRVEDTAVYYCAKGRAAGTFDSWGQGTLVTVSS
VL: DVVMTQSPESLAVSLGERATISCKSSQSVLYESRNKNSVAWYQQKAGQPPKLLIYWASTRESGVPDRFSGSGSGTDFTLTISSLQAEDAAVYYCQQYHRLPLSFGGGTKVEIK

The parent's light chain CDRs are KSSQSVLYESRNKNSVA, WASTRES, QQYHRLPLS; each variant's own CDRs replace them letter for letter. Every variant below is changed at L100 of the VL (sequential numbering). Each Kd is an estimate from the mating assay, the geometric mean of the replicates in which the pair was seen; lower is stronger. "no signal" marks a missing value. The strain was present, yet no cells mated with the target were sequenced in any replicate, which points to weak or no binding. The list is sorted by this average, lowest first, undetected variants last. Parent in this assay: reference entry 4.4 nM, copy in this library 48 nM. As a blank, each scFv also met three strains without target: over library AAYL50, 18% of these pairings were detected, typically at 15 µM and seldom below 970 nM. Also given: how often the same scFv was detected with the empty control strains.

The variant KSSQSVLYESNNKNSVA / WASIRES / QQYHRDPLS showed 2.0 nM (3 of 3 replicates; controls 2 of 9). The variant KSSQSVDYESSNKNSVA / WASTRES / QQYHRMPLS showed 4.1 nM (3 of 3 replicates; controls 1 of 9). For KSSQCVLDESRNKNSVA / WASTRES / QQYHRHPLS, the assay gave 5.2 nM (3 of 3 replicates; controls 2 of 9). The variant KSSQSVLYSSRNKNSVA / WASTRES / QQYHHCPLS gave 7.8 nM (3 of 3 replicates; controls 3 of 9). The variant KSSQSVLYESRNKNSVA / WASTRES / QDYHRNPLS showed 9.4 nM (3 of 3 replicates; controls 1 of 9). For KSSQSELYESRNKNSVA / WASTRES / QQYHRIPLE, the assay gave 10 nM (3 of 3 replicates; controls 0 of 9). With RSSQSVLYESRNKNSVA / WASTRES / QQYHRWNLS the result was 15 nM (3 of 3 replicates; controls 1 of 9). With KSSQSVLYESMNKNSVA / WASTRES / QQYERYPLS the result was 22 nM (3 of 3 replicates; controls 2 of 9).

With KSSQSVLYESRNKNSVA / WASTRES / QQYQRNPPS the result was 29 nM (3 of 3 replicates; controls 3 of 9). The variant KSSQSVLYESRNKNSVA / WDSTRES / QQAHRMPLS showed 45 nM (3 of 3 replicates; controls 4 of 9). The variant KSHQSVLYESRNKNSMA / WASTRES / QQYHRRPLS gave 53 nM (3 of 3 replicates; controls 2 of 9). The variant KSVQSVLYESRNKNSVA / WASTRES / QQYHRKPMS gave 850 nM (3 of 3 replicates; controls 3 of 9). The variant KSSQSVLYVSRNANSVA / WASTRES / QQYHRYPLS gave 1.6 µM (1 of 3 replicates; controls 1 of 9). For KSSQSVLYESRNKNSVA / WASTRES / QQYHVWPLS, the assay gave 7.4 µM (1 of 3 replicates; controls 0 of 9). For KSSQSVLYESRNKNSVW / WASTRES / QAYHRPPLS, the assay gave 11 µM (1 of 3 replicates; controls 0 of 9). With KSSQSMLYESRNKNSVA / WASTRES / QQTHRWPLS the result was 18 µM (2 of 3 replicates; controls 3 of 9).

The variant KSSQDVLYESRNKNSVA / WASTRES / QKYHRQPLS gave 18 µM (2 of 3 replicates; controls 1 of 9). With KSSQSVLYESRNKQSVA / WASTRES / QQYHKVPLS the result was 23 µM (1 of 3 replicates; controls 1 of 9). For KSSQSVQYESRNKNSVA / WASTRES / QQYHGVPLS, the assay gave 39 µM (3 of 3 replicates; controls 2 of 9). The variant KWSQSVLYESRNKNSVA / WASTRES / QQYHRKPLS gave 41 µM (2 of 3 replicates; controls 1 of 9). The variant NSSQSDLYESRNKNSVA / WASTRES / QQYHRCPLS showed 75 µM (2 of 3 replicates; controls 4 of 9). For KSSQSVLEESRNKNSSA / WASTRES / QQYHREPLS, the assay gave 84 µM (1 of 3 replicates; controls 1 of 9). For KQSQSVLYESRNKNSVA / WASTRES / QQYHRAPLS, the assay gave 770 µM (1 of 3 replicates; controls 2 of 9). With KSSQSVLDESRNKNSVA / WASTRES / QQYHRTPLS the result was 2.3 mM (2 of 3 replicates; controls 5 of 9).

The variant KSSQSVLYESRNYNSVA / WASTRQS / QQYHRAPLS showed no signal (0 of 3 replicates; controls 0 of 9). With KSSQSVLYESWNKNSVA / LASTRES / QQYHRQPLS the result was no signal (0 of 3 replicates; controls 0 of 9). For KSSQSVLYESGNKNSVA / WASTRYS / QQYHREPLS, the assay gave no signal (0 of 3 replicates; controls 0 of 9). For KSSPSVLYESRNKNSVA / WASTRES / QQYHRTPLW, the assay gave no signal (0 of 3 replicates; controls 0 of 9). The variant KSSQSVLCESRNKNSVA / WASTRES / QQYHRIPFS gave no signal (0 of 3 replicates; controls 0 of 9). The variant KSSQIVLYESRNKNSVA / WASTRES / QQYHRFPQS gave no signal (0 of 3 replicates; controls 0 of 9). The variant KSSQSVLYESRNKNSVC / WASTRET / QQYHRVPLS showed no signal (0 of 3 replicates; controls 0 of 9). The variant KSSQSVLYESRNKNSVA / WASTRWS / QQYHRINLS showed no signal (0 of 3 replicates; controls 0 of 9).

For KSSQSVLYESRNKHSVA / WASTRES / QQIHRNPLS, the assay gave no signal (0 of 3 replicates; controls 2 of 9). The variant KSSQSVLYESRNKISVA / WASTRES / QQYHREPLV gave no signal (0 of 3 replicates; controls 1 of 9). For KSLQSVLYESRNKNSVA / WANTRES / QQYHRTPLS, the assay gave no signal (0 of 3 replicates; controls 1 of 9). The variant KSSQSVLYYSRNKHSVA / WASTRES / QQYHRAPLS showed no signal (0 of 3 replicates; controls 2 of 9).

A selection of 5 entries from above:

{"CDR-L1": "KSSQSVLYESRNKQSVA", "CDR-L2": "WASTRES", "CDR-L3": "QQYHKVPLS", "Kd (apparent)": "23 µM", "replicates with signal": "1 of 3", "empty controls": "1 of 9"}
{"CDR-L1": "KSSQSVLYESRNKNSVA", "CDR-L2": "WASTRES", "CDR-L3": "QQYHVWPLS", "Kd (apparent)": "7.4 µM", "replicates with signal": "1 of 3", "empty controls": "0 of 9"}
{"CDR-L1": "KSLQSVLYESRNKNSVA", "CDR-L2": "WANTRES", "CDR-L3": "QQYHRTPLS", "Kd (apparent)": "no signal", "replicates with signal": "0 of 3", "empty controls": "1 of 9"}
{"CDR-L1": "KSSQSVLYESRNKHSVA", "CDR-L2": "WASTRES", "CDR-L3": "QQIHRNPLS", "Kd (apparent)": "no signal", "replicates with signal": "0 of 3", "empty controls": "2 of 9"}
{"CDR-L1": "KSSQSVLYESGNKNSVA", "CDR-L2": "WASTRYS", "CDR-L3": "QQYHREPLS", "Kd (apparent)": "no signal", "replicates with signal": "0 of 3", "empty controls": "0 of 9"}